Counter-ions that a name gives are not always drawn.

Chains of the proteins cited; added tags and fusions are not shown. Lines headed by an entry give the natural chain unless they say otherwise; changes in a name come on top.
UniProt Q8NHM5: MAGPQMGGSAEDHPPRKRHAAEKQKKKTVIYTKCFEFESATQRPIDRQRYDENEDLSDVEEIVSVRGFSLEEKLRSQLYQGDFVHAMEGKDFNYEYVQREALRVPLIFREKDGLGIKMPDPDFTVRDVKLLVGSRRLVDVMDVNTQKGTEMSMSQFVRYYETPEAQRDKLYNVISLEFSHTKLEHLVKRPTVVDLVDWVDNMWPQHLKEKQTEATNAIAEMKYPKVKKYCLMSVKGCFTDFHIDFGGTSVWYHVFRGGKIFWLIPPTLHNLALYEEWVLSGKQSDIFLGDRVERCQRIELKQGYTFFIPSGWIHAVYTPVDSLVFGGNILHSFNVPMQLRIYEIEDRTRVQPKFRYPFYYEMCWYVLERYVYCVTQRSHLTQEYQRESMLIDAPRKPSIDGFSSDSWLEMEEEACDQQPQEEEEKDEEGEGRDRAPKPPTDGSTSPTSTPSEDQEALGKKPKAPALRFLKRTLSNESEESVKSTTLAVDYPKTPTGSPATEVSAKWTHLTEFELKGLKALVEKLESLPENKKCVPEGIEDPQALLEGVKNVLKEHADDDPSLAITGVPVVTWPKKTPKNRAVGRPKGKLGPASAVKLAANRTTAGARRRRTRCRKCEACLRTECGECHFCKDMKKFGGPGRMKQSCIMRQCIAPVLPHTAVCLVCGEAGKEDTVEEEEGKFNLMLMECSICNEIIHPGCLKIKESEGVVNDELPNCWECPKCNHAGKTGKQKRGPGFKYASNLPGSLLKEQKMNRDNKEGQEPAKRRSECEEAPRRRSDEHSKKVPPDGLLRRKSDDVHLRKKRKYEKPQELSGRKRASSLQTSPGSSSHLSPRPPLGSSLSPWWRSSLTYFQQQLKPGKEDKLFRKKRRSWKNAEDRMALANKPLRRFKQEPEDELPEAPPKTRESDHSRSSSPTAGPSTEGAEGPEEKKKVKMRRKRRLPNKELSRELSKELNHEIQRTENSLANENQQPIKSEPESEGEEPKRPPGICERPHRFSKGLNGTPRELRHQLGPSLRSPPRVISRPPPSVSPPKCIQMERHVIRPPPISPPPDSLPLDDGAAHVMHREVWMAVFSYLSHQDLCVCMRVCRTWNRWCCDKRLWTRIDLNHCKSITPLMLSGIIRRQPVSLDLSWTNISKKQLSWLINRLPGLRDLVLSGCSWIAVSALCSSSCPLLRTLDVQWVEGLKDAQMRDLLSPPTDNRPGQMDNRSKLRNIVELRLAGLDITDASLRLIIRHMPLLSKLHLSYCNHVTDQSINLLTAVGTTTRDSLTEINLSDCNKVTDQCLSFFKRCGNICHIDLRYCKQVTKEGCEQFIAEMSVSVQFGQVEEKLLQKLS

The first assay deals with Full length KDM2B (Homo sapiens (Human), UniProt Q8NHM5). The experiment in a line: KDM2B TR-FRET assay for determining inhibitor IC50. The class given is biochemical. The note with it: KDM2B HTRF IC50, TR-FRET (HTRF), biotin-H3K36me2 peptide substrate, 2-OG 0.3 μM or 6 μM. The source says:
KDM2B TR-FRET Assay for Determining Inhibitor IC50
The KDM2B TR-FRET Assay described above represents an additional embodiment of the invention.
For orientation: In TR-FRET formats the signal depends on donor and acceptor labels being close together.
The term IC50 denotes the concentration at which inhibition is half-maximal. On to `O=C(c1ccc2cc(-c3ccccn3)ccc2c1)C1CCCN(CC2CC2)C1` (stereo not drawn) [Example 168, (1-(cyclopropylmethyl)piperidin-3-yl)(6-(pyridin-2-yl)naphthalen-2-yl)methanone], for which the IC50 is 182 nM.

Still in this assay, the particulars now being: TR-FRET (HTRF), biotin-H3K36me2 peptide substrate, 2-OG 0.3 μM or 6 μM; read-out: KDM2B HTRF IC50.
Turning to `O=C(c1ccc2cc(Br)ccc2c1)[C@H]1CCCN(CC2CC2)C1` (stereo in doubt) [Example 131b, (6-bromonaphthalen-2-yl)(1-(cyclopropylmethyl)piperidin-3-yl)methanone], the IC50 came to 181 nM.

As to `O=C(c1ccc2cc(Br)ccc2c1)[C@@H]1CCCN(CC2CC2)C1` (stereo in doubt) [Example 131a, (6-bromonaphthalen-2-yl)(1-(cyclopropylmethyl)piperidin-3-yl)methanone], the IC50 was 226 nM.

As for `CC(=O)Nc1ccc2cc(C(=O)C3CCCN(CC4CC4)C3)ccc2c1` (stereo not drawn) [Example 174, N-(6-(1-(cyclopropylmethyl)piperidine-3-carbonyl)naphthalen-2-yl)acetamide], the IC50 was determined as 1800 nM.

In the case of `CN(C)c1ccc2cc(C(=O)C3CCCN(CC4CC4)C3)ccc2c1` (stereo not drawn) [Example 172, (1-(cyclopropylmethyl)piperidin-3-yl)(6-(dimethylamino)naphthalen-2-yl)methanone hydrochloride], the IC50 is 316 nM.

With `Cc1ccc2cc(C(=O)C3CCCN(CC4CC4)C3)ccc2c1` (stereo not drawn) [Example 167, (1-(cyclopropylmethyl)piperidin-3-yl)(6-methylnaphthalen-2-yl)methanone], the IC50 is 171 nM.

For the origin of these results see patent publication US10280149B2, “Therapeutic compounds and uses thereof” (GENENTECH, INC., priority 2015, dated 2019).
